pIC50: −log10 of the molar value.
Legend:
delta opioid receptor = delta opioid receptor (Homo sapiens, UniProt P41143); experiment: Filtration binding assay: delta opioid receptor; details: read-out: Delta IC50; mean where tested more than once
kappa opioid receptor = kappa opioid receptor (Homo sapiens, UniProt P41145); experiment: Filtration binding assay: kappa opioid receptor; details: read-out: Kappa IC50; mean where tested more than once
mu opioid receptor = mu opioid receptor (Homo sapiens, UniProt P35372); experiment: Filtration binding assay: mu opioid receptor; details: read-out: Mu IC50; mean where tested more than once

The chains behind the UniProt entries cited, without tags or fusion partners. Where a name states a change or a piece, a line headed by the entry shows the natural chain unless it says otherwise.
UniProt P41143: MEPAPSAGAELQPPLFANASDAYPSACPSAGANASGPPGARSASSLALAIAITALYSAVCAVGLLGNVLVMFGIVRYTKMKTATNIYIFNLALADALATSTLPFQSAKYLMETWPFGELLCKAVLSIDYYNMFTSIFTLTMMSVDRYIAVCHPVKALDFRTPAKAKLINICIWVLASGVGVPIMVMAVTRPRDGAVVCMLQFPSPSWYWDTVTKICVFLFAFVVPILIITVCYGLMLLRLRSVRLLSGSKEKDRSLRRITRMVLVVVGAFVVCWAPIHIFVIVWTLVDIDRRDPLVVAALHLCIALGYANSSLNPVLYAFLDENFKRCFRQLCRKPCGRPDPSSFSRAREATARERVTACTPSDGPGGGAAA
UniProt P41145: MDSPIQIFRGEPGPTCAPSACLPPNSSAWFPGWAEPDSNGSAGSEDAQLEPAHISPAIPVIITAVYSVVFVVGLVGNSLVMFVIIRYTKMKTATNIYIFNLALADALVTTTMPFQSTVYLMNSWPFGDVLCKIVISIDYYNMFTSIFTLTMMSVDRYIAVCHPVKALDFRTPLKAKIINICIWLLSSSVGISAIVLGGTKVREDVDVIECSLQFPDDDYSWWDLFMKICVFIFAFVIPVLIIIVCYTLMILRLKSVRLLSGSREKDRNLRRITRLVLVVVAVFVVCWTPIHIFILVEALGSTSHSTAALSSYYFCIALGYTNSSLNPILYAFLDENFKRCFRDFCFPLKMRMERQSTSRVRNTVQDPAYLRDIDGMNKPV
UniProt P35372: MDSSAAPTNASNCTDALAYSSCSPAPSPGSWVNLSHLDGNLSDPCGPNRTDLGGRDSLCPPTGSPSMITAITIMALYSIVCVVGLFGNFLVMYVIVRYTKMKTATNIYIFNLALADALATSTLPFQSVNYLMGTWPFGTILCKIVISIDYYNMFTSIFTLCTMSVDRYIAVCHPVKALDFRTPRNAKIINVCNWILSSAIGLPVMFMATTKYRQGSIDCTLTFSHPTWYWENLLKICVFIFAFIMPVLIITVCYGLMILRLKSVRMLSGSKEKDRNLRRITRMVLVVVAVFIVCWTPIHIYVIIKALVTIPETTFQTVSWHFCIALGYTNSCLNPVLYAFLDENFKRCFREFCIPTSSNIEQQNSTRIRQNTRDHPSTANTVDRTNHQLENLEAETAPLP

## (R)-8-Acenaphthen-1-yl-1-(4-fluoro-phenyl)-3-(R)-oxiranylmethyl-1,3,8-triazaspiro[4.5]decan-4-one
Delta opioid receptor
  pIC50: < 5.00
Kappa opioid receptor
  pIC50: 6.36
Mu opioid receptor
  pIC50: 6.42

From patent publication US7582649B2, “Hydroxy alkyl substituted 1,3,8-triazaspiro[4.5]decan-4-one derivatives useful for the treatment of ORL-1 receptor mediated disorders” (Janssen Pharmaceutica, NV, priority 2002, dated 2009)
